Like-named read-outs stand apart in the source and are kept apart here. Marks after values point to notes of the source that are not given here.
Molecular target: AgOAR45B (Anopheles gambiae, UniProt F5HJT6)
Conditions: for Agonist Efficiency / Antagonist Efficiency: percent of the 1µM octopamine response; for Ligand Type: classification in the AgOAR45B reporter assay; for EC50: read-out: Agonist EC50

By UniProt entry, the sequences of proteins in these tests, tags left out. Residues count along the entry.
UniProt F5HJT6, 1-590: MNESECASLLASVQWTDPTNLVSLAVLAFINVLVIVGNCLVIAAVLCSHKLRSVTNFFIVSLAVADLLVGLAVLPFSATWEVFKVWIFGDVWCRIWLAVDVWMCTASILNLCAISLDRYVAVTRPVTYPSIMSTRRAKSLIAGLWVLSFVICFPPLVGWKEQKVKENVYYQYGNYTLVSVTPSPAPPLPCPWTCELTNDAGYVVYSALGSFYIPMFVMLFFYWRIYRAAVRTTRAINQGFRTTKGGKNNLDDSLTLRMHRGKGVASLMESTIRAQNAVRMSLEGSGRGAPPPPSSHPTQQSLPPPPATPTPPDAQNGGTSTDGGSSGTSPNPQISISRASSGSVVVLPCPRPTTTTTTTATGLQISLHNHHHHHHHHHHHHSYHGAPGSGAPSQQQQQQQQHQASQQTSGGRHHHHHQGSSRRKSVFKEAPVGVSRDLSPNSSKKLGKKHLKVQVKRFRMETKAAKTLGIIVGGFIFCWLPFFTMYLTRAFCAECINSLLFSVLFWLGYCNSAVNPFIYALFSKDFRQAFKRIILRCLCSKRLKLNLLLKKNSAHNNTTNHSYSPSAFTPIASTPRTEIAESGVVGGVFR

SMILES: CCN(CC)c1ccc(NC(=O)Cc2ccccc2)cc1
- Agonist Efficiency (100µM compound): 13%
- Antagonist Efficiency (100µM compound): 86.2%
- Ligand Type: weak agonist
- EC50 (value in parentheses): 3.7 µM

SMILES: CC(C)CC(=O)NC(=S)Nc1cccc(S(=O)(=O)N2CCCCCC2)c1
- Agonist Efficiency (100µM compound): 3%
- Antagonist Efficiency (100µM compound): >90%
- Ligand Type: weak agonist
- EC50 (value in parentheses): 27.9 µM

SMILES: CCN(CC)c1ccc(Nc2c(-c3ccc4c(c3)OCC(=O)N4)c(=O)c2=O)c(C)c1
- Agonist Efficiency (100µM compound): <5%
- Ligand Type: antagonist
- Antagonistic activity (in the presence of 1 μM octopamine): exhibited a dose response for at least two concentrations
- IC50 (read-out: Antagonist IC50, value in parentheses, against 1µM octopamine): 13.2 µM
- Antagonist Efficiency (tested at 50µM because insoluble at 100µM, listed as 9274026): 11^b (13.2) %
